Assay [1] addresses T1, μ-opioid receptor (Homo sapiens, UniProt P35372). In words: [35S]GTPgS functional assay, μ-receptor membranes. The protocol: (§1) [^35S]GTPgS functional assays were conducted using freshly thawed ORL-1 or μ-receptor membranes, as appropriate. Assay reactions were prepared by sequentially adding the following reagents to binding buffer (100 mM NaCl, 10 mM MgCl2, 20 mM HEPES, pH 7.4) on ice (final concentrations indicated): membrane protein (0.066 mg/mL for ORL-1 receptor and 0.026 mg/mL for μ-receptor), saponin (10 mg/ml), GDP (3 mM) and [^35S]GTPgS (0.20 nM; NEN). The prepared membrane solution ([…]/well) was transferred to 96-shallow well polypropylene plates containing 10 mL of 20× concentrated stock solutions of the agonist nociceptin prepared in dimethyl sulfoxide (“DMSO”). Plates were incubated for 30 min at room temperature with shaking. Reactions were terminated by rapid filtration onto 96-well Unifilter GF/B filter plates (Packard, Meriden, Conn.) using a 96-well tissue harvester (Brandel, Gaithersburg, Md.) followed by three filtration washes with 200 mL of ice-cold binding buffer (10 mM NaH2PO4, 10 mM Na2HPO4, pH 7.4). Filter plates were subsequently dried at 50° C. for 2-3 h. BetaScint scintillation cocktail (Wallac, Turku, Finland) was added ([…]/well) and plates were counted using a Packard Top-Count for 1 min/well. Data were analyzed using the sigmoidal dose-response curve fitting functions in GraphPad PRISM, v. 3.0. […]
(Binding of GTPγS marks nucleotide exchange on a G protein.)

By UniProt entry, the sequences of proteins in these tests, tags left out.
UniProt P35372, whole entry: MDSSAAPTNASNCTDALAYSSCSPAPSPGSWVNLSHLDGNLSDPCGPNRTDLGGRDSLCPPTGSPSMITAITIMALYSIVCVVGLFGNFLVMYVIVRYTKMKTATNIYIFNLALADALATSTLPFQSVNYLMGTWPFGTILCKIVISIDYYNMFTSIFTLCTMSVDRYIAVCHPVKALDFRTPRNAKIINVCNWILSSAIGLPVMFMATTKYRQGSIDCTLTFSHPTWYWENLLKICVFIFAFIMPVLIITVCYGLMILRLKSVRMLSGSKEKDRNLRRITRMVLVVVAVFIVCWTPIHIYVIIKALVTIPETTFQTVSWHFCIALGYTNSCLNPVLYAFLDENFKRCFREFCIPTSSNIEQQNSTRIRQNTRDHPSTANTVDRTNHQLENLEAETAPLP
UniProt P41146, whole entry: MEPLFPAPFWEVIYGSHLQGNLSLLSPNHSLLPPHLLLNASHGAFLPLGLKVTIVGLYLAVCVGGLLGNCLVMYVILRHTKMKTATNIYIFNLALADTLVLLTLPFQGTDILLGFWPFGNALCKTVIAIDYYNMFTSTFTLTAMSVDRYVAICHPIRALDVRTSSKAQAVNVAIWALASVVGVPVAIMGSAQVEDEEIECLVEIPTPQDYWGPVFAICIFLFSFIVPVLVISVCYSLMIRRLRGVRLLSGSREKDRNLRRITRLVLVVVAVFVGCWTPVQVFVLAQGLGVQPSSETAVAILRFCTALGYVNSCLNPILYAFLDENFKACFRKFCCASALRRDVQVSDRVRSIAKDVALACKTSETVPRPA

Another assay addresses ORL-1 receptor (Homo sapiens, UniProt P41146). In words: [35S]GTPgS functional assay, ORL-1 receptor membranes. The note with it: maximal effect relative to nociceptin. On the procedure:
as §1

The target in assay [2] is T1, μ-opioid receptor. In words: μ-receptor radioligand dose-displacement binding assay ([3H]-diprenorphine). The note with it: read-out: binding constant Ki, μ-opioid receptors; displacement of 0.2 nM [3H]-diprenorphine. On the procedure:
Radioligand dose-displacement binding assays for ORL-1 and μ receptors used 0.1 nM [^3H]-nociceptin or 0.2 nM [^3H]-diprenorphine (NEN, Boston, Mass.), respectively, with […] membrane protein/well in a final volume of […] binding buffer (10 mM MgCl2, 1 mM EDTA, 5% DMSO, 50 mM HEPES, pH 7.4). Reactions were carried out in the absence or presence of increasing concentrations of unlabled nociceptin (American Peptide Company, Sunnyvale, Calif.) or naloxone, for ORL-1 and μ, respectively. All reactions were conducted in 96-deep well polypropylene plates for 1-2 h at room temperature. Binding reactions were terminated by rapid filtration onto 96-well Unifilter GF/C filter plates (Packard, Meriden, Conn.) presoaked in 0.5% polyethylenimine using a 96-well tissue harvester (Brandel, Gaithersburg, Md.) followed performing by three filtration washes with 500 mL of ice-cold binding buffer. Filter plates were subsequently dried at 50° C. for 2-3 h. BetaScint scintillation cocktail (Wallac, Turku, Finland) was added ([…]/well), and plates were counted using a Packard Top-Count for 1 min/well. The data were analyzed using the one-site competition curve fitting functions in GraphPad PRISM v. 3.0 (San Diego, Calif.).

Assay [3] addresses human opioid receptor-like (ORL-1) receptor (Homo sapiens, UniProt P41146). Nature of the assay: ORL-1 receptor radioligand dose-displacement binding assay ([3H]-nociceptin). As to conditions: read-out: binding constant Ki, ORL-1 receptors; displacement of 0.1 nM [3H]-nociceptin; HEK-293 membranes. On the procedure: All reagents were from obtained from Sigma (St. Loius, Mo.) unless noted otherwise. Membranes from recombinant HEK-293 cells expressing the human opioid receptor-like (ORL-1) receptor (Perkin Elmer, Boston, Mass.) were prepared by lysing cells in ice-cold hypotonic buffer (2.5 mM MgCl2, 50 mM HEPES, pH 7.4) (10 mL/10 cm dish), followed by homogenization with a tissue grinder/teflon pestle. Membranes were collected by centrifugation at 30,000×g for 15 min at 4° C., and pellets were resuspended in hypotonic buffer to a final concentration of 1-3 mg/mL. Protein concentrations were determined using the BioRad (Hercules, Calif.) protein assay reagent with bovine serum albumen as standard. Aliquots of the ORL-1 receptor membranes were stored at −80° C.
Radioligand dose-displacement binding assays for ORL-1 and μ receptors used 0.1 nM [^3H]-nociceptin or 0.2 nM [^3H]-diprenorphine (NEN, Boston, Mass.), respectively, with […] membrane protein/well in a final volume of […] binding buffer (10 mM MgCl2, 1 mM EDTA, 5% DMSO, 50 mM HEPES, pH 7.4). […] BetaScint scintillation cocktail (Wallac, Turku, Finland) was added ([…]/well), and plates were counted using a Packard Top-Count for 1 min/well. The data were analyzed using the one-site competition curve fitting functions in GraphPad PRISM v. […]

Broadly, the EC50 is the concentration at which the effect is half-maximal. For orientation: Ki means a measure of affinity in units of concentration, obtained from inhibition or displacement. In the case of `CCOC(=O)CN1CN(c2ccccc2)C2(CCN(CCC(c3ccccc3)c3ccccc3)CC2)C1=O`, at μ-opioid receptor [1] (maximal effect relative to DAMGO), the “μ GTP Emax” value was 88%. At μ-opioid receptor [1] (read-out: μ GTP EC50, [35S]GTPgS, μ-receptor membranes), the half-maximal effective concentration (EC50) is 0.044 µM. Further, the “ORL-1 GTP Emax” value at ORL-1 receptor worked out at 95%. Also, the inhibitory constant (Ki) at μ-opioid receptor [2] is 0.0029 µM; in assay [3], 0.018 µM.

The values are drawn from patent US7414062B2, “Triazaspiro compounds useful for treating or preventing pain” (dated 2008).
